For orientation: Ki means a dissociation constant, usually derived from enzyme kinetics or from competition with a known ligand. A low value points to higher affinity. As a reminder, the kon is a measure of how fast the partners come together. In general, koff refers to the rate constant with which the complex falls apart. As usually defined, the IC50 is the concentration needed to halve the response being measured. In general, inhibition refers to the change of the read-out against control, counted positive when it falls.

Protein sequences, listed by entry. Tags and fused reporters are not part of them. Lines headed by an entry give the natural chain unless they say otherwise; changes in a name come on top.
UniProt P93836: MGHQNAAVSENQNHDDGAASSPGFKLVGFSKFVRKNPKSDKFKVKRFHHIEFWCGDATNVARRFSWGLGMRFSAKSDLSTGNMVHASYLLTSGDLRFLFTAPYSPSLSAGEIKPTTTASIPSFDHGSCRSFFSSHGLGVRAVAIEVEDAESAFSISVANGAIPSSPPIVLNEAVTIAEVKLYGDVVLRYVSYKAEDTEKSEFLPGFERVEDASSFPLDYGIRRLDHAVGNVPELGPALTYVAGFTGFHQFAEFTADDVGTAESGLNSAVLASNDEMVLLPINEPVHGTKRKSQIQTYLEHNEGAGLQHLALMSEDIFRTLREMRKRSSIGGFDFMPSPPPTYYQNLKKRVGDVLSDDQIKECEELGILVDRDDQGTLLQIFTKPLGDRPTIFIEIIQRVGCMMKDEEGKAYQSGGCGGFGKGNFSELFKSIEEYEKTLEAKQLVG
UniProt A8R3H6, entry or part of it: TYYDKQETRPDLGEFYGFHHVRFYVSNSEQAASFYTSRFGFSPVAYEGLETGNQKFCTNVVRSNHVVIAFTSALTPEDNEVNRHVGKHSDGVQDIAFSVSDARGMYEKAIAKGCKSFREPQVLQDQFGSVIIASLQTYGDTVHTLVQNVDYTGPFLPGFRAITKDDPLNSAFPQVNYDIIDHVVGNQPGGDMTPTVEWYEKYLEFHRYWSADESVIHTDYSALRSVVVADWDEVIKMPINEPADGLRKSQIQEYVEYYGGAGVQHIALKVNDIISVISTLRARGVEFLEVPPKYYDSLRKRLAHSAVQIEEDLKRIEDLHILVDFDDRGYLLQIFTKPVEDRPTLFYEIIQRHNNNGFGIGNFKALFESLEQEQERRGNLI

Test [1] deals with T1, Arabidopsis thaliana HPPD (SEQ ID No. 10) (Arabidopsis thaliana, UniProt P93836).
T1 construct: made in house; host or cells: E. coli K-12 BL21 (pQE30-AtHPPD)
T1 sequence (P93836 with tags, fused parts or gaps): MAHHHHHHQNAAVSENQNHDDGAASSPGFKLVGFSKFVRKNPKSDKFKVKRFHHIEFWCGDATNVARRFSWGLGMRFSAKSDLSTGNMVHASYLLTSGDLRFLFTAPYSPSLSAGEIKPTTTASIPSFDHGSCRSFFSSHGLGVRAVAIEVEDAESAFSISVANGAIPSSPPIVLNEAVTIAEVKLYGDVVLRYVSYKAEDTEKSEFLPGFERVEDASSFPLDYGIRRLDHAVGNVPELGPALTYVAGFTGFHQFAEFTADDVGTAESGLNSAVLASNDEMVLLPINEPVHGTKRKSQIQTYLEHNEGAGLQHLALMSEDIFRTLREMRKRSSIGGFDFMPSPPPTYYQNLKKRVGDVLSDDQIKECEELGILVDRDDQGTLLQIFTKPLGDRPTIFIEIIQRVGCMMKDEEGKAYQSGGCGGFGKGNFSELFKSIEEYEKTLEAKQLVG
Nature of the test: HPLC assay of HPPD in vitro kinetic properties. It is filed as biochemical. The method, then: (§1) Km, Vmax, and kcat values for different HPPD enzyme preparations and Ki, K1=Kon, and K−1=Koff for different HPPD inhibitors were determined using a HPLC assay for measurements of HPPD activity. […] All assays were started by the addition of HPPD enzyme to the assay mixture and stopped at a series of times between 0 and 240 s by addition of 200 μl of the reaction mixture to reaction assay tubes containing 20 μl 10% perchloric acid. Precipitated protein was pelleted by a 5 minute centrifugation at 10,000 g. 100 μl of the supernatant were loaded onto a 250×4 mm Knauer (Berlin, Germany) Eurospher 100-5 C18-column equilibrated with 10% methanol, 0.1% trifluoroacetic acid (buffer A). […] A standard set of concentrations of HGA were used to provide a standard curve in order to calibrate the 292 nm absorbance of the HGA peak versus HGA concentration.
(§2) For Km and Vmax value determinations the initial rates of the HPPD reaction at different substrate concentrations were determined from plots of HGA formed versus time and fitted to the Michaelis-Menten equation for unireactant enzymes using the ID Business Solutions Ltd. (www.idbs.com) XLfit software suite. For the determination of Ki, K1=Kon, and Ki=Koff values the time-courses of the HPPD reaction at different inhibitor concentrations were fitted to the equations for Mechanism A, competitive inhibition, for tight-binding inhibitors (Cha, S. (1975) Tight-binding inhibitors—I. Kinetic behaviour. Biochemical Pharmacology 24, 2177-2185) using the ID Business Solutions Ltd. XLfit software suite

In test [2] the target is T2, Blepharisma japonicum HPPD (SEQ ID No. 5) (Blepharisma japonicum, UniProt A8R3H6). Briefly: HPLC assay of HPPD in vitro kinetic properties. It is filed as biochemical. The method, then: as §1, §2
Test [3] has as its target T1, Arabidopsis thaliana HPPD (SEQ ID No. 10). Nature of the test: Spectrophotometric HPPD activity assay in presence of HPPD inhibitors. It is filed as biochemical.
In test [4] the target is T2, Blepharisma japonicum HPPD (SEQ ID No. 5). Briefly: biochemical. To be noted: for inhibition at 5 µM: read-out: percentage of inhibition.

As to `CS(=O)(=O)c1cc(C(F)(F)F)ccc1C(=O)C(C#N)C(=O)C1CC1` (stereo not drawn) [Diketonitrile, 2-cyano-3-cyclopropyl-1-(2-methylsulphonyl-4-trifluoromethylphenyl)-propane-1,3-dione], in test [1], the Ki was 0.018 µM. In addition, the kon in test [2] (read-out: k1 (Kon, association rate constant)) is 980 M⁻¹ s⁻¹. Also, in test [2] (read-out: k−1 (Koff, dissociation rate constant)), the koff amounted to 0.0065 s⁻¹. In addition, the IC50 in test [3] was under 2.51 µM.

Consider `CS(=O)(=O)c1ccc(C(=O)C2C(=O)CCCC2=O)c([N+](=O)[O-])c1` [Mesotrione, 2-[4-(methylsulfonyl)-2-nitrobenzoyl]-1,3-cyclohexanedione], for which, in test [4], the IC50 was 63.1 µM and the inhibition at 5 µM turned out to be 0%.

`CS(=O)(=O)c1ccc(C(=O)C2C(=O)CCCC2=O)c(Cl)c1` [Sulcotrione, 2-[2-chloro-4-(methylsulfonyl)benzoyl]-1,3-cyclohexanedione]: in test [4], the IC50 was 15.8 µM and the inhibition at 5 µM was determined as 7%.

For the compound `CS(=O)(=O)c1ccc(C(=O)C2C(=O)CCCC2=O)c(Cl)c1COCC1CCCO1` (stereo not drawn) [Tefuryltrione, 2-[2-chloro-4-(methylsulfonyl)-3-[[(tetrahydro-2-furanyl)methoxy]methyl]benzoyl]-1,3-cyclohexanedione], the IC50 in test [3] was under 2.51 µM.

The values above are taken from US20110191897A1, “Plants Tolerant to HPPD Inhibitor Herbicides” (Bayer CropScience AG, priority 2009, published 2011).
